Experimental findings from US6956113B2 (priority 2000, dated 2005) are described below.

Data set [1] deals with bioluminescent Salmonella tester strains (his- cells). The data set can be described thus: High throughput (pre-incubation) bioluminescent "Ames" mutagenicity assay. The note with it: luminescent microcolonies, treated versus untreated wells.
In data set [2] the test system is Salmonella strain TA 1535 carrying pBRTNluxAM or pBRTNluxAMmuc631. Nature of the data set: Bioluminescent β-lactamase (β-lac) reverse mutagenicity assay.

Regarding N-methyl-N′-nitro-nitrosoguanidine, in data set [1] (FIG. 4), the “bioluminescent revertants after treatment (mutagenicity)” value is “detection of bioluminescent revertants”. In addition, the “bioluminescent revertants after independent exposure (mutagenicity)” value in data set [1] (FIG. 5) is listed as “detection of bioluminescent revertants”. The “mutagenic activity in bioluminescent β-lactamase assay” value in data set [2] (luminescent microcolonies, treated versus untreated wells, FIG. 8) is listed as “detection of mutagenic activity”. Besides, in data set [2] (strain SApBRTNluxAM), the “ability of the strain to detect mutagens (reversion to ampicillin resistance)” value was “ability of this strain to detect mutagens was confirmed”.
